These are literature values, as cited in patent publication US20200315241A1 (Nude Nicotine, Inc., priority 2017, published 2020).

The conditions of one data set: Table 7; nicotine salt (organic acid); cited from earlier work.
Nicotine adipate: the pKa is on record as 4.43.

Nicotine gallate: the pKa is reported as 4.4.

As for Nicotine nicotinate, the pKa is 4.75.

With Nicotine prolinate, the pKa was 1.99.

With Nicotine threoninate, the pKa is listed as 2.09.

As to Nicotine glutamate, the pKa is on record as 2.19.

The same data set, now with this note: Table 7; nicotine salt (organic acid); second value; cited from earlier work.
Consider Nicotine adipate, for which the pKa is 5.41.
